This experiment deals with T1, Human factor D (Homo sapiens, UniProt P00746).
T1 construct: purified from human serum; purchased Complement Technology, Inc; host or cells: human serum
Nature of the experiment: Human Factor D Assay. The class given is biochemical. The procedure:
Other standard factor D inhibition assays are also available.
Human factor D (purified from human serum, Complement Technology, Inc.) at 80 nM final concentration is incubated with test compound at various concentrations for 5 minutes at room temperature in 50 mM Tris, 1M NaCl, pH 7.5. A synthetic substrate Z-L-Lys-SBzl and DTNB (Ellman's reagent) are added to final concentrations of 100 μM each. The increase in color is recorded at OD405 nm in a microplate in kinetic mode over 30 minutes with 30 second time points in a spectrofluorimeter. IC50 values are calculated by non-linear regression from the percentage of inhibition of complement factor D activity as a function of test compound concentration.

Sequences of proteins named here, by UniProt entry; tags and fusion partners are left off. Residues count along the entry.
UniProt P00746, 26-253: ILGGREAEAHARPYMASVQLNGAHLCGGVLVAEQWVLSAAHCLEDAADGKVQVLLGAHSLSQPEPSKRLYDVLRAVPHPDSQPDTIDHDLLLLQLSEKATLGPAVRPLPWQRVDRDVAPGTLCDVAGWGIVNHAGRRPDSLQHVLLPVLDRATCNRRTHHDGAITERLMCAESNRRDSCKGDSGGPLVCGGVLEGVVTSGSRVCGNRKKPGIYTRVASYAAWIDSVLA

SMILES strings stand for the structures.

Usually IC50 stands for the concentration that gives 50% inhibition.

Take `NC(=O)c1nn(CC(=O)N2C[C@H](F)C[C@H]2C(=O)Nc2cncc(Br)c2)c2ccc(-c3ccnnc3)cc12` [Compound 90, 1-(2-((2S,4R)-2-(5-bromopyridin-3-ylcarbamoyl)-4-fluoropyrrolidin-1-yl)-2-oxoethyl)-5-(pyridazin-4-yl)-1H-indazole-3-carboxamide]: the concentration for half-maximal inhibition (IC50) lay in the range of 1 to 10 µM. The same measure for `CC(=O)c1cn(CC(=O)N2C[C@H](F)C[C@H]2C(=O)Nc2cc(C)nn2-c2ccccc2F)c2ccc(-c3ccnnc3)cc12` [Compound 160, (2S,4R)-1-(2-(3-acetyl-5-(pyridazin-4-yl)-1H-indol-1-yl)acetyl)-4-fluoro-N-(1-(2-fluorophenyl)-3-methyl-1H-pyrazol-5-yl)pyrrolidine-2-carboxamide]: 1 to 10 µM; for `CC(=O)c1cn(CC(=O)N2C[C@H](F)C[C@H]2C(=O)Nc2cccc(OCc3ccccc3)n2)c2ccc(-c3ccnnc3)cc12` [Compound 60, (2S,4R)-1-(2-(3-acetyl-5-(pyridazin-4-yl)-1H-indol-1-yl)acetyl)-N-(6-(benzyloxy)pyridin-2-yl)-4-fluoropyrrolidine-2-carboxamide]: 1 to 10 µM.

The values above are taken from patent US20160362399A1, “ARYL, HETEROARYL, AND HETEROCYCLIC COMPOUNDS FOR TREATMENT OF COMPLEMENT MEDIATED DISORDERS” (Achillion Pharmaceuticals, Inc., priority 2014, published 2016).
